Experiment: Lethal dose and maximum tolerable dose in mice
Settings: mouse, in vivo, oral; once every other day regimen
Description: First, a preliminary experiment was carried out to determine the maximal non-toxic dose by administering an oral dose of Triptonide at 0, 5, 10, 25, 50, 100, 200 mg/kg body weight once every other day. […] Thus, a second preliminary experiment was carried out in tumor-bearing nude mice to determine whether an antitumor effect could be achieved within the non-toxic range. In the first set of the experiments, tumor-bearing mice were treated with 0, 1, 5, 10, 25 mg/kg Triptonide by gavage with the regimen of one dosage every other day. […] Thus, the 25 mg/kg once every other day regimen was selected for the preclinical experiment. The volumes of individual tumors were assessed by bioluminescent imaging.
Thus, we first determined the lethal dose and the maximum tolerable dose (MTD) of Triptonide for mice based on a once every other day regimen. […] It is noted that once every other day might not be the optimal scheme. Nonetheless, we decided to begin with this scheme and the 25% value of the MTD, i.e. 25 mg/kg.

Compound CC(C)[C@]12O[C@H]1[C@@H]1O[C@@]13[C@@]1(C)CCC4=C(COC4=O)[C@@H]1C[C@@H]1O[C@@]13C2=O [Triptonide] has an MTD at 4 days of 100 to 200 mg/kg.
